Laboratory results as given in ChEMBL document CHEMBL2424616, “Synthesis and antimicrobial activity of novel 5-(1-adamantyl)-2-aminomethyl-4-substituted-1,2,4-triazoline-3-thiones” (2013).

System: Escherichia coli
Settings: IFO 3301

GENTAMICIN
MIC: 0.5 µg/mL
